The values below are quoted from earlier work in US20100197962A1 (priority 2005, published 2010).

This data set addresses glycine site (strychnine-insensitive) coupled to the NMDA receptor complex (Homo sapiens, UniProt Q05586). Conditions: Lanza et al. 1997; cited from earlier work.

With “(S)-4-amino-N-(4,4-dimethylcyclohexyl)glutamic acid [Neboglamine]”, the “modulatory properties on the glycine site coupled to the NMDA receptor complex” value is “significant modulatory properties”.
